Experimental data from US10174202B2, “Dyes with phosphinic acid, phosphinate, phosphonate and phosphonamidate substituents as auxochromic groups and methods for preparing the same” (Max-Planck-Gesellschaft zur Foerderung der Wissenschaften …, priority 2017, dated 2019).

What was measured:
[1] = Emission spectra and fluorescence quantum yield; type: physicochemical
Protocol: (§1) Absorption spectra were recorded with a Varian Cary 4000 UV-Vis double-beam spectrophotometer (Agilent Technologies, USA). For the determination of the absorption spectra, quartz cells with a 1 cm path length were used. Emission spectra and fluorescence quantum yield were obtained on a Quantaurus-QY Absolute PL quantum yield spectrometer C11347 (Hamamatsu Photonics, Japan) or on a Varian Cary Eclipse fluorescence spectrometer (Agilent Technologies, USA).

[2] = Absorption spectroscopy (UV/Vis); type: physicochemical
Protocol: as §1

| Compound | Emission max. ([1]; in aq. PBS, pH 7.4) [nm] | Absorption max. ([2]; in acetonitrile) [nm] | ε at absorption max. ([2]; in acetonitrile) | Absorption max. ([2]; in aq. PBS, pH 7.4) [nm] | ε at absorption max. ([2]; in aq. PBS, pH 7.4) | Emission max. ([1]; in acetonitrile) [nm] | QY (fluorescence quantum yield, Φfl) ([1]; in acetonitrile) | Stokes shift ([1]; in acetonitrile) [nm] | QY (fluorescence quantum yield, Φfl) ([1]; in aq. PBS, pH 7.4) | Stokes shift ([1]; in aq. PBS, pH 7.4) [nm] | Stability (Stability of the dyes) |
| --- | --- | --- | --- | --- | --- | --- | --- | --- | --- | --- | --- |
| CN(C)c1ccc2c([PH](=O)O)c3ccc(N(C)C)cc3[n+](CCCC(=O)O)c2c1.O=C([O-])C(F)(F)F [Compound 23, 10-(3-Carboxypropyl)-3,6-bis(dimethylamino)-9-(hydroxyhydrophosphoryl)acridinium trifluoroacetate] | 595 | – | – | – | – | – | – | – | – | – | – |
| Ethyl [3,6-bis(dimethylamino)-9H-xanthenylium-9-yl]phosphonate [Compound 11] | 633 | 565 | 63519 M⁻¹ cm⁻¹ and 63500 M⁻¹ cm⁻¹ | 597 | 66564 M⁻¹ cm⁻¹ and 66600 M⁻¹ cm⁻¹ | 595 | 0.44 | 30 | 0.22 | 36 | moderate |
| COP(=O)(OC)c1c2ccc(=[N+](C)C)cc-2oc2cc(N(C)C)ccc12.O=C([O-])C(F)(F)F [Compound 5, 9-(Dimethoxyphosphoryl)-3,6-bis(dimethylamino)-9H-xanthenylium trifluoroacetate] | – | – | – | 597 | – | – | – | – | – | – | – |

“And” between values parts separate entries of the source, which are not always exact repeats. Equal values may be shown once.
